From patent publication US20080287478A1 (priority 2003, published 2008)

Experiments:
[1] = rat, in vivo
male NMRI mice = settings: mouse, in vivo, iv

cis-(8-(4-Isopropyl-cyclohexyl)-1-phenyl-1,3,8-triaza-spiro[4.5]decan-4-one)-acetic acid [Compound 11]
T½ min (half-life) [1]: 25 min | CNS grid shock* (Minimal effective dose nmol/kg) (male NMRI mice): >10000 nmol/kg
